Earlier results, collected in publication PMC5812989, “Evaluation of HER2-specific peptide ligand for its employment as radiolabeled imaging probe” (Scientific Reports, 2018).

Details: 24 h after injection; murine models; cited from earlier work

^111In-labeled trastuzumab Fab fragments: 111In-labeled Fab fragments of the anti-HER2 antibody trastuzumab
renal uptake: 53.0 ± 15.94 %ID/g
